Our source for the activity change values is PubChem BioAssay AID651724 (National Center for Advancing Translational Sciences (NCATS), 2012).

This is a selection; strong and weak results do not stand in their true shares. Some tests of the compounds listed are not included; inactive here does not mean inactive elsewhere. Activity calls are given as the source filed them. Rule as the data show it: active = activity change below about -65%; inconclusive = mostly about -30% to -63%; inactive = weaker than that.
% is scaled to controls: 0 for no effect and ±100 for the full control effect.

The test system of the test is CtBP / adenovirus E1A interaction (AlphaScreen). Briefly: qHTS Assay for Inhibitors of the CtBP/E1A Interaction. Conditions: AlphaScreen GST-E1A/His-CtBP binding, 1536-well; active compounds read low. The source says:
Carboxyl-terminal binding protein (CtBP) is a co-repressor for many transcription factors. […] Our studies have shown that CtBP is overexpressed in multiple human cancers, including lung, breast, and head and neck cancers. In particular, it is over-expressed in 50% of primary lung cancer and 90% of metastatic lesions. CtBP suppresses epithelial-specific genes as well as genes critical for apoptosis, providing the underlying molecular mechanism for its role in tumorigenesis. […] Based on the above data, we hypothesize that 1) CtBP suppresses the pro-apoptotic and epithelial genes, therefore overexpressed CtBP in human cancer cells increases EMT and cancer survival; 2) decreasing CtBP's function represents a targeted therapy for lung cancer and potentially multiple cancer types. As a co-repressor, CtBP binds to E1A and other transcription factors through a conserved peptide motif to carry out its action. Inhibiting this interaction using small molecules can potentially serve as effective cancer therapeutics.
To this end, we have developed a homogenous AlphaScreen assay targeting the CtBP/E1A interaction. We performed a large scale HTS of the Molecular Libraries Small Molecule Repository (MLSMR) to identify inhibitors of the CtBP/E1A interaction as potential anti-cancer therapeutics. Compounds identified can also be used as chemical probes to better understand the biological functions of CtBP.
NIH Chemical Genomics Center [NCGC]
NIH Molecular Libraries Probe Centers Network [MLPCN]
Assay Submitter (PI): Rui Zhao, University of Colorado Denver
The first step of the 5uL AlphaScreen assay is to dispense assay buffer (50 mM Tris, pH 8.0, 300 mM NaCl, 0.05% BSA, 0.02% Tween 20, 1 mM TCEP) into a Greiner 1536 white solid bottom microtiter plate (789175-F). Five microliters is added to Column 1, 4 uL is added to Column 2 and 3 uL is added to Columns 3 through 48. A 5X protein solution (125 nM GST-E1A protein + 125 nM His-tagged CtBP protein) is mixed and 1 uL is dispensed to Columns 3-48. Using a 1536 pintool, 23 nL of compound is transferred to the assay plate and the plate is incubated with a lid at 37 deg C in the dark for two hours. A solution of 5X AlphaScreen beads is mixed (50 ug/mL Glutathione linked donor beads + Nickel chelated acceptor beads) and 1 uL is dispensed to Columns 2-48. The assay plate is incubated for one hour, with a lid, at 37 deg C in the dark. The plate is read using a Perkin Elmer Envision using an AlphaScreen protocol.
With `O=C(OC1CN2CCC1CC2)C(CO)(c1ccccc1)c1ccccc1` (configuration not stated), the activity change is inactive: -0.951%.

For the compound `CN(C)c1cccc(C(=O)NCC2(N(C)C)CCCCC2)c1`, the activity change is inactive: -0.993%.

Regarding `CC(C)Oc1ccc(C(=O)NCC2(N(C)C)CCCCC2)cc1`, the activity change was inactive: -2.46%.

Regarding `O=C(OCCN1CCCC1)C(O)(c1ccccc1)c1ccccc1`, the activity change was inactive: 1.18%.

Turning to `COc1ccc(Br)c(C(=O)NCC2(N3CCCCC3)CCCCC2)c1`, the activity change was inactive: -0.968%.

Turning to `C=C(C)C#CC(O)(C(=O)OC1CCN(C)CC1)c1ccccc1` (configuration not stated), the activity change is inactive: -0.678%.

Consider `CN(C)C1(CNC(=O)c2ccc(Br)cc2)CCCCC1`, for which the activity change is inactive: -12.2%.

Take `O=C(NCC1(N2CCCCC2)CCCCC1)c1cccc(Cl)c1`: the activity change is inactive: -9.84%.

Take `COc1cccc(C(=O)NCC2(N3CCCCC3)CCCCC2)c1`: the activity change was inactive: 2.78%.

For `COc1ccc(Cl)cc1C(=O)NCC1(N(C)C)CCCCC1`, the activity change was inactive: 9.28%.

As for `CN(C)c1ccc(C(=O)NCC2(N(C)C)CCCCC2)cc1`, the activity change is inactive: -11.2%.

In the case of `CN(C)C1CCCC1OC(=O)C(O)(c1ccccc1)c1ccccc1` (configuration not stated), the activity change was inactive: 0.14%.

Take `CCN1CCCC(OC(=O)C2(O)c3ccccc3C=Cc3ccccc32)C1` (configuration not stated): the activity change was inactive: 4.9%.

Consider `Cc1cc(C(=O)NCC2(N3CCCCC3)CCCCC2)ccc1[N+](=O)[O-]`, for which the activity change is inactive: 3.79%.

Regarding `O=C(NCC1(N2CCCCC2)CCCCC1)c1cccc(Br)c1`, the activity change is inactive: -0.557%.

In the case of `COc1ccc(C(=O)NCC2(N(C)C)CCCCC2)cc1`, the activity change is inactive: 3.67%.

On to `O=C(NCC1(N2CCCCC2)CCCCC1)c1cc(F)c(F)cc1Cl`, for which the activity change is inactive: 18%.

In the case of `O=C(NCC1(N2CCCCC2)CCCCC1)c1cc([N+](=O)[O-])ccc1Cl`, the activity change was inactive: -4.99%.

`Cc1ccc(C(=O)NCC2(N3CCCCC3)CCCCC2)cc1`: the activity change is inactive: -6.89%.

For the compound `CC(C)N1C(=O)CC2(CCN(CCOC(=O)C(O)(c3ccccc3)c3ccccc3)CC2)C1=O`, the activity change is inactive: 4.25%.

`CCN(CC)CC(C)C(C)OC(=O)C(O)(c1ccccc1)c1ccccc1` (configuration not stated): the activity change was inactive: 6.36%.

On to `COc1cc(SC)ccc1C(=O)NCC1(N(C)C)CCCCC1`, for which the activity change is inactive: -1.4%.
